# PubChem BioAssay AID504845 (National Center for Advancing Translational Sciences (NCATS), 2011)
# The chains behind the UniProt entries cited, without tags or fusion partners. Where a name states a change or a piece, a line headed by the entry shows the natural chain unless it says otherwise.
# UniProt P49798: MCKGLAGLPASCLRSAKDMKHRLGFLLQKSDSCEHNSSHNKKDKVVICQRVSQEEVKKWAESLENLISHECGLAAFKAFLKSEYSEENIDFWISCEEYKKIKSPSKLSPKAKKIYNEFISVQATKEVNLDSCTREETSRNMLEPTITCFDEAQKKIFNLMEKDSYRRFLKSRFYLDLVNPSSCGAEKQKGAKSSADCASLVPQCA
# Where “and” joins values, the source holds several entries; their conditions need not be identical. Equal entries are not always repeated. The entries are a selection whose mix differs from that of the whole data set. Results filed as inconclusive are left out. Calls of active or inactive are those of the source. Calls follow the shape of the dose curve; as a rule, active = well fitted inhibition curve with a large enough effect; inconclusive = small, poorly fitted or top-dose-only effect; inactive = no such curve, though single readings can be large or run the other way.
# Molecular target: Regulator of G-protein signaling 4 (Homo sapiens) (UniProt P49798)
# Assay: Inhibitors of Regulator of G Protein Signaling (RGS) 4: qHTS; also: nearly all actives have a fitted effect of over 75% in size
# Settings: Transcreener GDP fluorescence polarization, RGS4-accelerated GTP hydrolysis
# [1] = at 114 µM (top of the series) unless noted
# % is scaled to controls: 0 for no effect and ±100 for the full control effect.
compound,measurement,setting,value
CCCCOc1ccc(C(=O)NCC2(N3CCCCC3)CCCCC2)cc1OC,"activity change, negative = inhibition",[1],inactive: -22.6%
CCOC(=O)Nc1ccc([As](=O)(O)O)c(O)c1,"activity change, negative = inhibition",[1],inactive: 4.98% [at 11.4 µM]
CC1CCNP(=O)(N(CCCl)CCCl)O1 (stereo not given),"activity change, negative = inhibition",[1],inactive: 9.92%
CCC(C)N(CC(C)C)C(=S)SC(NC(C)=O)C(Cl)(Cl)Cl (stereo not given),"activity change, negative = inhibition",[1],inactive: -51.6%
CCOP(=O)(Nc1cccc2cccnc12)OCC,"activity change, negative = inhibition",[1],inactive: -12.9%
O=C(OC1CN2CCC1CC2)c1cccc([N+](=O)[O-])c1 (stereo not given),"activity change, negative = inhibition",[1],inactive: -11.1%
CCOC(=O)c1ccc(NC(=O)C(C)(CCl)SC)cc1 (stereo not given),"activity change, negative = inhibition",[1],inactive: 26%
O=C(COc1ccccc1)OC1CN2CCC1CC2 (stereo not given),"activity change, negative = inhibition",[1],inactive: -5.54%
O=C(Nc1ccncc1[N+](=O)[O-])c1ccc([N+](=O)[O-])cc1[N+](=O)[O-],"activity change, negative = inhibition",[1],inactive: -0.88%
COP1(=S)c2c(C)nn(CCC#N)c2N=C(c2ccc(F)cc2)N1C (stereo not given),"activity change, negative = inhibition",[1],inactive: -1.55%
CN(C(=O)Cc1ccc(Cl)c(Cl)c1)[C@@H]1CCCC[C@H]1N1CCCC1,"activity change, negative = inhibition",at 56.9 µM (top of the series),inactive: 1120%
same,"activity change, negative = inhibition",at 114 µM (top of the series),inactive: 4.7%
CC(C)/C=N\N=C(\N)N[N+](=O)[O-],"activity change, negative = inhibition",[1],inactive: -17.2%
CC1(CBr)Cn2c(nc3ccccc3c2=O)S1 (stereo not given),"activity change, negative = inhibition",[1],inactive: -31.2%
COc1ccccc1CNC(=O)COC(=O)C(O)(c1ccccc1)c1ccccc1,"activity change, negative = inhibition",[1],inactive: 18.7%
Clc1n[nH]nc1-c1nn[nH][15n]1,"activity change, negative = inhibition",[1],inactive: -11.1%
CC(C)(C)C(=O)NC(Sc1ncccn1)C(Cl)(Cl)Cl (stereo not given),"activity change, negative = inhibition",[1],inactive: -18%
CCC1=CC2Cc3nc4ccc(Cl)cc4c(N)c3C(C1)C2 (stereo not given),"activity change, negative = inhibition",[1],inactive: 5.62%
O=P1(Nc2ccccn2)COc2ccccc2OC1,"activity change, negative = inhibition",[1],inactive: 11% [at 11.4 µM]
CCOP(=O)(NC(=NC(C)c1ccccc1)NC(C)c1ccccc1)OCC (stereo not given),"activity change, negative = inhibition",[1],inactive: 13%
CCOP(=O)(Nc1ccc(C)cn1)OCC,"activity change, negative = inhibition",[1],inactive: 19.3%
CN(CCCl)Cc1cc(Cl)c(NC2=NCCN2)c(Cl)c1,"activity change, negative = inhibition",at 56.9 µM (top of the series),inactive: -6.23%
same,"activity change, negative = inhibition",at 114 µM (top of the series),inactive: -8.52%
Nc1cccc([As](=O)(O)c2ccccc2)c1,"activity change, negative = inhibition",[1],inactive: 25.2%
O=[As](O)(c1cccs1)c1cccs1,"activity change, negative = inhibition",[1],inactive: -19.5%
Cc1ccc(OCC(=O)OC2CN3CCC2CC3)cc1 (stereo not given),"activity change, negative = inhibition",[1],inactive: -4.09%
NS(=O)(=O)c1cccc(NC(=O)COC(=O)C(O)(c2ccccc2)c2ccccc2)c1,"activity change, negative = inhibition",[1],inactive: -10.9%
O=P1(Nc2ccc(Br)cn2)COc2ccccc2OC1,"activity change, negative = inhibition",[1],inactive: -0.428%
O=P1(Nc2ncccn2)COc2ccccc2OC1,"activity change, negative = inhibition",[1],inactive: 2% [at 11.4 µM]
CN(C)C1(CNC(=O)c2ccc(S(C)(=O)=O)cc2)CCCCC1,"activity change, negative = inhibition",[1],inactive: 24.8%
O=C(/C=C/c1ccccc1)OC1CN2CCC1CC2 (stereo not given),"activity change, negative = inhibition",[1],inactive: 20.6%
CCCC1OP(=O)(Nc2ccccc2)OCC1CC (stereo not given),"activity change, negative = inhibition",[1],inactive: 1.64%
Cc1nn(-c2ccccc2)c2c1P(=O)(N1CCOCC1)N(C)C(c1ccccc1)=N2 (stereo not given),"activity change, negative = inhibition",[1],inactive: 12.4%
Cc1ccc(C(=O)OC2CN3CCC2CC3)cc1 (stereo not given),"activity change, negative = inhibition",[1],inactive: -5.15%
CC1CCC(C(C)C)C(OP(=O)(Nc2ccccn2)c2ccccc2)C1 (stereo not given),"activity change, negative = inhibition",[1],inactive: 4.25%
N#CCCN(C(=O)COC(=O)C(O)(c1ccccc1)c1ccccc1)c1ccc(F)cc1,"activity change, negative = inhibition",[1],inactive: -33.3%
CCOP1(=S)c2c(C)nn(CCC#N)c2N=C(c2ccc(F)cc2)N1C (stereo not given),"activity change, negative = inhibition",[1],inactive: -7.65%
CN(C(=O)Cc1ccccc1)[C@@H]1CC[C@]2(CCCO2)C[C@H]1N1CCCC1,"activity change, negative = inhibition",at 56.9 µM (top of the series),inactive: -15.1%
same,"activity change, negative = inhibition",at 114 µM (top of the series),inactive: 8.61%
O=[N+]([O-])c1ccc2c(c1)nnn2O,"activity change, negative = inhibition",[1],inactive: -2.7%
CN(C)C(=O)c1cc([N+](=O)[O-])cc2c1-c1c(cc([N+](=O)[O-])cc1[N+](=O)[O-])C2=O,"activity change, negative = inhibition",[1],inactive: -29.3%
CN(C(=O)Cc1ccc(Cl)c(Cl)c1)[C@H]1CC[C@@]2(CCCO2)C[C@@H]1N1CCCC1,"activity change, negative = inhibition",[1],inactive: 4.61%
NC(=O)Nc1ccc([As](=O)(O)O)cc1,"activity change, negative = inhibition",[1],inactive: -8.51%
O=C(O)COc1ccc([As](=O)(O)O)cc1[N+](=O)[O-],"activity change, negative = inhibition",[1],inactive: 7.88% [at 56.9 µM]
Nc1ccccc1[As](=O)(O)c1ccccc1,"activity change, negative = inhibition",[1],inactive: -5.41%
CCOP1(=S)c2c(C)nn(CCC#N)c2N=C(c2ccccc2F)N1C (stereo not given),"activity change, negative = inhibition",[1],inactive: 0.546%
O=P(Nc1nccs1)(Oc1ccccc1)Oc1ccccc1,"activity change, negative = inhibition",[1],inactive: -3.23%
O=P(Nc1nccs1)(c1ccccc1)c1nc2ccccc2s1 (stereo not given),"activity change, negative = inhibition",[1],inactive: -119%
COc1cc(C2NCCC3(OCCO3)C2(C)C)cc(OC)c1OC (stereo not given),"activity change, negative = inhibition",[1],inactive: -34.2%
CCOP(=O)(Nc1cccc2ccccc12)OCC,"activity change, negative = inhibition",[1],inactive: 11.9%
Nc1cccc2c([As](=O)(O)O)cccc12,"activity change, negative = inhibition",[1],inactive: -31.9%
Cc1ccc(NCCc2c([N+](=O)[O-])cc([N+](=O)[O-])cc2[N+](=O)[O-])cc1,"activity change, negative = inhibition",[1],inactive: -45.5%
CCCOP(=S)(Nc1nc(N)cc(=O)[nH]1)OCCC,"activity change, negative = inhibition",[1],inactive: 3.37%
Cc1cccc(OCC(=O)OC2CN3CCC2CC3)c1 (stereo not given),"activity change, negative = inhibition",[1],inactive: 14.1%
O=[As](O)(c1cccc(O)c1)c1cccc(O)c1,"activity change, negative = inhibition",[1],inactive: -2.26%
O=C(OC1CN2CCC1CC2)c1ccc(Cl)cc1 (stereo not given),"activity change, negative = inhibition",[1],inactive: -7.72%
CN(C(=O)Cc1ccc(Cl)c(Cl)c1)[C@@H]1CC[C@]2(CCCO2)C[C@H]1N1CCCC1,"activity change, negative = inhibition",[1],inactive: 80% [at 56.9 µM] and inactive: -6.75% [at 56.9 µM]
O=[As](O)(O)c1cccnc1,"activity change, negative = inhibition",[1],inactive: 25.9% [at 11.4 µM]
COc1cc(C(=O)NCC2(N3CCOCC3)CCCCC2)cc(Cl)c1OC(C)C,"activity change, negative = inhibition",[1],inactive: 11%
CS(=O)(=O)c1ccc(Cl)c(NC(=O)COC(=O)C(O)(c2ccccc2)c2ccccc2)c1,"activity change, negative = inhibition",[1],inactive: 1.1%
